Data published in ChEMBL document CHEMBL1130012 (J Med Chem, 1997).

Tests used:
[1] = Tissue/plasma ratio of the antagonistic compound in heart
[2] = Tissue/plasma ratio of the antagonistic compound in intestine
[3] = Tissue/plasma ratio of the antagonistic compound in lung
[4] = Tissue/plasma ratio of the antagonistic compound in pancreas
[5] = Tissue/plasma ratio of the antagonistic compound in presence of atropine in heart
[6] = Tissue/plasma ratio of the antagonistic compound in presence of atropine in intestine
[7] = Tissue/plasma ratio of the antagonistic compound in presence of atropine in lung
[8] = Tissue/plasma ratio of the antagonistic compound in presence of atropine in pancreas
[9] = Tissue/plasma ratio of the antagonistic compound in presence of atropine in stomach
[10] = Tissue/plasma ratio of the antagonistic compound in presence of atropine in submandibular gland
[11] = Tissue/plasma ratio of the antagonistic compound in presence of atropine in trachea
[12] = Tissue/plasma ratio of the antagonistic compound in spleen
[13] = Tissue/plasma ratio of the antagonistic compound in stomach
[14] = Tissue/plasma ratio of the antagonistic compound in submandibular gland
[15] = Tissue/plasma ratio of the antagonistic compound in trachea
[16] = Tissue/plasma ratio of the antagonistic compound in presence of atropine in spleen

SMILES | Ratio [1] | Ratio [2] | Ratio [3] | Ratio [4] | Ratio [5] | Ratio [6] | Ratio [7] | Ratio [8] | Ratio [9] | Ratio [10] | Ratio [11] | Ratio [12] | Ratio [13] | Ratio [14] | Ratio [15] | Ratio [16]
C[N+]1(C)CCC(OC(=O)[C@](O)(c2ccccc2)C2CCCCC2)CC1.[I-] | 118 | 47.2 | 10.1 | 28.8 | 0.6 | 5.3 | 0.6 | 1.9 | 1.2 | 1.3 | 1.6 | 11 | 24.7 | 26.3 | 8 | 0.6
C[N+]1(C)CCC(OC(=O)C(O)(c2ccccc2)C2CCCCC2)CC1.[I-] (racemic) | 61.1 | 33 | 4.8 | 14.2 | 1.3 | 8.7 | 1.1 | 2.3 | 3 | 1.6 | 2.1 | 6.3 | 11.6 | 12.1 | 4 | 1.8
